The experiment concerns human PBMCs. The experiment is described as follows: Tetanus toxoid recall assay using individual peptides. The class given is cell-based. As to conditions: qualitative summary of FIG. 13.

The structures appear in SMILES notation.

With `CSCC[C@H](NC(=O)CNC(=O)[C@@H](NC(=O)[C@H](Cc1c[nH]c2ccccc12)NC(=O)[C@H](Cc1c[nH]cn1)NC(=O)[C@H](CO)NC(=O)[C@H](CCCNC(=N)N)NC(=O)[C@@H](NC(=O)[C@H](CCC(N)=O)NC(=O)[C@H](Cc1ccc(O)cc1)NC(=O)[C@@H](NC(=O)[C@H](CCC(N)=O)NC(=O)[C@H](Cc1c[nH]cn1)NC(=O)[C@H](Cc1c[nH]cn1)NC(=O)[C@@H](N)Cc1c[nH]cn1)C(C)C)C(C)C)[C@@H](C)O)C(=O)N[C@@H](Cc1c[nH]cn1)C(=O)N[C@@H](CO)C(=O)NCC(=O)N[C@@H](Cc1c[nH]cn1)C(=O)N[C@@H](CC(=O)O)C(=O)O` [HD20], the IL-17a production result is reported as “++”.
Turning to `CC[C@H](C)[C@H](NC(=O)[C@H](CCCCN)NC(=O)[C@@H]1CCCN1C(=O)[C@H](CCSC)NC(=O)[C@@H]1CCCN1C(=O)[C@@H](NC(=O)[C@@H](NC(=O)[C@H](CCCNC(=N)N)NC(=O)[C@@H](NC(=O)[C@@H](N)CCC(N)=O)[C@@H](C)O)[C@@H](C)O)C(C)C)C(=O)N[C@@H](Cc1c[nH]cn1)C(=O)N[C@@H](Cc1c[nH]cn1)C(=O)N1CCC[C@H]1C(=O)N1CCC[C@H]1C(=O)N[C@@H](Cc1c[nH]c2ccccc12)C(=O)N[C@@H](CCC(N)=O)C(=O)N[C@@H](CC(N)=O)C(=O)N[C@H](C(=O)N[C@H](C(=O)N1CCC[C@H]1C(=O)O)C(C)C)C(C)C` [QP20], the IL-17a production result was “x”.
Next, `CSCC[C@H](NC(=O)[C@H](CCCCN)NC(=O)[C@H](Cc1ccccc1)NC(=O)[C@H](Cc1c[nH]cn1)NC(=O)[C@H](Cc1c[nH]cn1)NC(=O)[C@H](Cc1ccc(O)cc1)NC(=O)[C@H](CO)NC(=O)[C@@H](N)CO)C(=O)N1CCC[C@H]1C(=O)N[C@@H](CCC(=O)O)C(=O)N[C@@H](CC(C)C)C(=O)N[C@@H](Cc1c[nH]cn1)C(=O)N[C@@H](Cc1ccccc1)C(=O)NCC(=O)N[C@@H](CCCCN)C(=O)N[C@@H](CC(N)=O)C(=O)N[C@H](C(=O)N[C@@H](Cc1ccccc1)C(=O)N[C@@H](Cc1c[nH]cn1)C(=O)N[C@@H](CCC(N)=O)C(=O)O)[C@@H](C)O` [SQ20]: “++”; `CC[C@H](C)[C@H](NC(=O)[C@H](Cc1c[nH]c2ccccc12)NC(=O)[C@H](CCC(=O)O)NC(=O)[C@H](Cc1c[nH]cn1)NC(=O)[C@H](CCC(=O)O)NC(=O)[C@H](Cc1c[nH]cn1)NC(=O)[C@@H]1CCCN1C(=O)[C@H](CCCNC(=N)N)NC(=O)[C@@H](NC(=O)[C@H](Cc1c[nH]cn1)NC(=O)[C@H](Cc1c[nH]cn1)NC(=O)[C@H](CC(N)=O)NC(=O)[C@H](Cc1c[nH]cn1)NC(=O)[C@H](Cc1ccccc1)NC(=O)[C@H](CO)NC(=O)[C@H](C)NC(=O)[C@@H]1CCCN1C(=O)[C@H](CC(C)C)NC(=O)[C@H](CC(N)=O)NC(=O)[C@@H](N)Cc1c[nH]c2ccccc12)[C@@H](C)CC)C(=O)N[C@@H](CCC(N)=O)C(=O)O` [WQ20]: “++”.

Source of the values: patent US10799555B2, “PD-1 peptide inhibitors” (Leidos, Inc., priority 2016, dated 2020).
